Test results reported in patent publication US20050112068A1.
Only a part of the results on these compounds is given; other tests are left out.

Experiment: Fentanyl destruction in sodium hypochlorite solution (HPLC of remaining drug)
[1] = time 1 hr, sodium hypochlorite solution
[2] = time 2 hrs, sodium hypochlorite solution
[3] = time 4 hrs, sodium hypochlorite solution
[4] = time 8 hrs, sodium hypochlorite solution

SMILES: CCC(=O)N(c1ccccc1)C1CCN(CCc2ccccc2)CC1
- Fentanyl (mg in 10 mL solution) (time 0 hrs, water/citric acid + 6-9 wt % sodium hypochlorite solution 1:1, shaker 150 rpm): 3.50 mg in 10 mL solution
- % Degraded [1]: 33%
- Fentanyl (mg in 10 mL solution) [1]: 2.34 mg in 10 mL solution
- % Degraded [2]: 55%
- Fentanyl (mg in 10 mL solution) [2]: 1.57 mg in 10 mL solution
- % Degraded [3]: 90%
- Fentanyl (mg in 10 mL solution) [3]: 0.34 mg in 10 mL solution
- % Degraded [4]: 100%
- Fentanyl (mg in 10 mL solution) [4]: 0.00 mg in 10 mL solution
- fentanyl degraded (within 4 hours in the hypochlorite solution): over 90%
